System: 5HT2 receptors
Assay: Receptor binding studies using rat brain: 5HT2

| SMILES | affinity for 5HT2 receptors |
| --- | --- |
| CC(C)C[C@H]1C(=O)N2CCC[C@H]2[C@]2(O)O[C@](NC(=O)[C@@H]3C=C4c5cccc6[nH]c(Br)c(c56)C[C@H]4N(C)C3)(C(C)C)C(=O)N12 [bromocriptine, reference compound] | showed affinity |
| CCCN1C[C@H](CSC)C[C@@H]2c3cccc4[nH]cc(c34)C[C@H]21 [pergolide] | showed affinity |

Reference: patent publication US4824860A, “Treatment of Parkinsons disease” (priority 1987, dated 1989)
